Tested on: Her2-positive breast cancer cell line SKBR3
Test: cell-based proliferation (cytotoxicity) assay, Cell Titer-Glo
Conditions: SKBR3 cells, 120 hrs, at the concentrations tested
Procedure: The cell killing activity (cytotoxicity) of the conjugated ADC was measured using a cell-based proliferation assay. The Her2-positive breast cancer cell line SKBR3 was obtained from ATCC and maintained in DMEM/Nutrient F-12 Ham (50:50), high glucose (Cellgro-Mediatech; Manassas, Va.) supplemented with 10% heat-inactivated fetal bovine serum (Hyclone; Thermo Scientific; Waltham, Mass.), 2 mM glutamax (Invitrogen; Carlsbad, Calif.) and 1× Pencillin/streptomycin (Cellgro-Mediatech; Manassas, Va.). Adherent cells were washed twice with calcium and magnesium-free Phosphate Balanced Saline (PBS) and harvested with HYQ® SE™ (Hyclone; Thermo Scientific; Waltham, Mass.). A total of 1×10^3 or 3×10^3 cells in a volume of 40 ml were seeded in each well of a 96-well half area flat bottom white polystyrene plate. The cells were allowed to adhere overnight at 37° C. in a CO2 incubator. ADC variants were formulated at 2× concentration in DMEM/F12, medium and filtered through sterile SpinX cellulose acetate filtered 2 ml centritube (Corning Costar, Cat#8160). 40 μl of filter-sterilized ADCs were added into treatment wells and plates were cultured at 37° C. in a CO2 incubator for 120 hrs. […] Relative luminescence was measured on an ENVISION® plate reader (Perkin-Elmer; Waltham, Mass.). Relative luminescence readings were converted to % viability using untreated cells as controls. […]

trastuzumab: Her2-specific monoclonal antibody; unconjugated control
cell killing: ineffective

Reference: patent publication US9938516B2, “Non-natural amino acid tRNA synthetases for para-methylazido-L-phenylalanine” (SUTRO BIOPHARMA, INC., priority 2013, dated 2018)
